Source: US20030224074A1, “Composition for the protection and regeneration of nerve cells containing the extract of Scutellaria Radix” (EUGENBIO INC., priority 2001, published 2003)
Entries after “also recorded” stand apart in the source; their conditions may differ.

Experiments:
[1] = tested on: apoptosis of nerve cells induced by MK-801; conditions: 7-day old white rats, MK-801 0.5 mg/kg intraperitoneally, alone
Source text: All groups were intraperitoneally injected.
Experimental animals were sacrificed under anesthetization and their brains were excised. The excised brains were fixed with formalin and tissue sections were obtained.

[2] = rats; cited from earlier work

## MK-801
[1]
  apoptosis of nerve cells in cerebral slices (TUNEL): apoptosis of nerve cells in cerebral slices was identified; also recorded: cells having died by apoptosis
[2]
  elimination half-life: 1.9 h
